{
  "source": "patent US20230165831A1",
  "about": "“METHOD AND COMPOSITION FOR RENDERING CANCER CELLS SUSCEPTIBLE TO TREATMENT BY TARGETED ONCOGENETIC DRIVERS” (IMPACT BIOLIFE SCIENCE, INC., priority 2021, published 2023)",
  "key": {"[1]": {"test_system": "pancreatic cancer line Capan-1 cells", "assay": "CTG (CellTiter-Glo) cell viability assay, 6×6 combo matrix, 72 h, Capan-1", "assay_type": "cell-based", "protocol": "To measure the cell inhibition effect of compounds and synergy effect of test articles on ten (10) cell lines using standard CTG assay.\nb. A549, T47D, SK-OV-3, MKN45, SK-Hep-1, HT-29, Capan-1, 786-O and LNCaP cell line, for compounds and vehicle groups, the seeding density of cell lines is 3000 cells/80 µL per well. For blank groups, add 100 µL medium. For PBS groups, add 100 µL PBS.\n8) Incubate the U87MG, A549, T47D, SK-OV-3, MKN45, SK-Hep-1, HT-29, Capan-1, 786-O and LNCaP cells overnight at 37° C./5% CO2.\n5) Incubate the plates at 37° C./5% CO2 for 72 hours.\n6) Read plates in Envision."}, "[2]": {"test_system": "lung adenocarcinoma line A549 cells", "assay": "CTG (CellTiter-Glo) cell viability assay, 6×6 combo matrix, 72 h, A549;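 further: luminescent ATP readout with CellTiter-Glo after compound exposure, used to assess growth inhibition and combination synergy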"}, "[3]": {"test_system": "kidney cancer line 786-O cells", "assay": "CTG (CellTiter-Glo) cell viability assay, 6×6 combo matrix, 72 h, 786-O;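 further: luminescence read-out after adding CellTiter-Glo reagent, with cells incubated at 37 °C under 5% CO2 during compound exposure, part of a ten cell line synergy study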"}, "[4]": {"test_system": "gastric cancer line MKN45 cells"}, "[5]": {"test_system": "ovarian cancer line SK-OV3 cells", "assay": "CTG (CellTiter-Glo) cell viability assay, 6×6 combo matrix, 72 h, SK-OV-3;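 further: luminescent signal read after CellTiter-Glo addition, cells exposed to compounds for 72 h at 37 °C under 5% CO2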"}, "[6]": {"test_system": "gastric cancer line MKN45 cells", "assay": "CTG (CellTiter-Glo) cell viability assay, 6×6 combo matrix, 72 h, MKN45"}, "[7]": {"test_system": "colorectal cancer line HT29 cells", "assay": "CTG (CellTiter-Glo) cell viability assay, 6×6 combo matrix, 72 h, HT29;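 further: cells exposed to compounds for 72 hours at 37 °C under 5% CO2, then viability read as luminescence after adding CellTiter-Glo Reagent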"}},
  "data": [
    {"molecule": "COc1cccc2c1C(=O)c1c(O)c3c(c(O)c1C2=O)C[C@@](O)(C(=O)CO)C[C@@H]3O[C@H]1C[C@H](N)[C@H](O)[C@H](C)O1", "note": "[doxorubicin]", "values": [
      {"measurement": "Relatively Cell inhibition of vehicle control(%)", "setting": "[1]; Dox 16 nM only", "value": 14.70, "unit": "%"},
      {"measurement": "Relatively Cell inhibition of vehicle control(%)", "setting": "[1]; Dox 80 nM only", "value": 36.03, "unit": "%"},
      {"measurement": "Relatively Cell inhibition of vehicle control(%)", "setting": "[1]; Dox 400 nM only", "value": 66.58, "unit": "%"},
      {"measurement": "Relatively Cell inhibition of vehicle control(%)", "setting": "[1]; Dox 2000 nM only", "value": 86.15, "unit": "%"},
      {"measurement": "Relatively Cell inhibition of vehicle control(%)", "setting": "[1]; Dox 10000 nM only", "value": 76.46, "unit": "%"},
      {"measurement": "Relatively Cell inhibition of vehicle control(%)", "setting": "[2]; Dox 16 nM only", "value": 17.90, "unit": "%"},
      {"measurement": "Relatively Cell inhibition of vehicle control(%)", "setting": "[2]; Dox 80 nM only", "value": 45.26, "unit": "%"},
      {"measurement": "Relatively Cell inhibition of vehicle control(%)", "setting": "[2]; Dox 400 nM only", "value": 61.50, "unit": "%"},
      {"measurement": "Relatively Cell inhibition of vehicle control(%)", "setting": "[2]; Dox 2000 nM only", "value": 95.63, "unit": "%"},
      {"measurement": "Relatively Cell inhibition of vehicle control(%)", "setting": "[2]; Dox 10000 nM only", "value": 94.29, "unit": "%"},
      {"measurement": "Relatively Cell inhibition of vehicle control(%)", "setting": "[3]; Dox 80 nM only (LB-1 0)", "value": 24.26, "unit": "%"},
      {"measurement": "Relatively Cell inhibition of vehicle control(%)", "setting": "[3]; Dox 400 nM only (LB-1 0)", "value": 62.24, "unit": "%"},
      {"measurement": "Relatively Cell inhibition of vehicle control(%)", "setting": "[3]; Dox 2000 nM only (LB-1 0)", "value": 77.77, "unit": "%"},
      {"measurement": "Relatively Cell inhibition of vehicle control(%)", "setting": "[3]; Dox 10000 nM only (LB-1 0)", "value": 79.94, "unit": "%"},
      {"measurement": "inhibition", "setting": "[4]", "value": 2.79, "unit": "%"},
      {"measurement": "Relatively Cell inhibition of vehicle control(%)", "setting": "[5]; Dox 16 nM only (myricetin matrix)", "value": 1.98, "unit": "%"},
      {"measurement": "Relatively Cell inhibition of vehicle control(%)", "setting": "[5]; Dox 80 nM only (LB-1 matrix)", "value": 40.49, "unit": "%"},
      {"measurement": "Relatively Cell inhibition of vehicle control(%)", "setting": "[5]; Dox 80 nM only (myricetin matrix)", "value": 36.36, "unit": "%"},
      {"measurement": "Relatively Cell inhibition of vehicle control(%)", "setting": "[5]; Dox 400 nM only (LB-1 matrix)", "value": 72.01, "unit": "%"},
      {"measurement": "Relatively Cell inhibition of vehicle control(%)", "setting": "[5]; Dox 400 nM only (myricetin matrix)", "value": 69.42, "unit": "%"},
      {"measurement": "Relatively Cell inhibition of vehicle control(%)", "setting": "[5]; Dox 2000 nM only (LB-1 matrix)", "value": 91.55, "unit": "%"},
      {"measurement": "Relatively Cell inhibition of vehicle control(%)", "setting": "[5]; Dox 2000 nM only (myricetin matrix)", "value": 91.18, "unit": "%"},
      {"measurement": "Relatively Cell inhibition of vehicle control(%)", "setting": "[5]; Dox 10000 nM only (LB-1 matrix)", "value": 84.35, "unit": "%"},
      {"measurement": "Relatively Cell inhibition of vehicle control(%)", "setting": "[5]; Dox 10000 nM only (myricetin matrix)", "value": 85.70, "unit": "%"},
      {"measurement": "Relatively Cell inhibition of vehicle control(%)", "setting": "[6]; Dox 16 nM only (Myr 0)", "value": 9.08, "unit": "%"},
      {"measurement": "Relatively Cell inhibition of vehicle control(%)", "setting": "[6]; Dox 80 nM only (LB-1 0)", "value": 28.50, "unit": "%"},
      {"measurement": "Relatively Cell inhibition of vehicle control(%)", "setting": "[6]; Dox 80 nM only (Myr 0)", "value": 32.23, "unit": "%"},
      {"measurement": "Relatively Cell inhibition of vehicle control(%)", "setting": "[6]; Dox 400 nM only (LB-1 0)", "value": 65.75, "unit": "%"},
      {"measurement": "Relatively Cell inhibition of vehicle control(%)", "setting": "[6]; Dox 400 nM only (Myr 0)", "value": 71.19, "unit": "%"},
      {"measurement": "Relatively Cell inhibition of vehicle control(%)", "setting": "[6]; Dox 2000 nM only (LB-1 0)", "value": 95.07, "unit": "%"},
      {"measurement": "Relatively Cell inhibition of vehicle control(%)", "setting": "[6]; Dox 2000 nM only (Myr 0)", "value": 93.78, "unit": "%"},
      {"measurement": "Relatively Cell inhibition of vehicle control(%)", "setting": "[6]; Dox 10000 nM only (LB-1 0)", "value": 73.01, "unit": "%"},
      {"measurement": "Relatively Cell inhibition of vehicle control(%)", "setting": "[6]; Dox 10000 nM only (Myr 0)", "value": 81.99, "unit": "%"},
      {"measurement": "Relatively Cell inhibition of vehicle control(%)", "setting": "[7]; Dox 16 nM only (Myr 0)", "value": -0.43, "unit": "%"},
      {"measurement": "Relatively Cell inhibition of vehicle control(%)", "setting": "[7]; Dox 80 nM only (Myr 0)", "value": 28.95, "unit": "%"},
      {"measurement": "Relatively Cell inhibition of vehicle control(%)", "setting": "[7]; Dox 400 nM only (Myr 0)", "value": 52.68, "unit": "%"},
      {"measurement": "Relatively Cell inhibition of vehicle control(%)", "setting": "[7]; Dox 2000 nM only (Myr 0)", "value": 91.27, "unit": "%"},
      {"measurement": "Relatively Cell inhibition of vehicle control(%)", "setting": "[7]; Dox 10000 nM only (Myr 0)", "value": 82.88, "unit": "%"}
    ]}
  ]
}
